According to US8956996B2, “Method for reducing nitrous oxide emission from soils” (BASF SE, priority 2009, dated 2015):
This is a selection: effects in other tests are not listed, and their absence says nothing.

System: N2O emission from soils
Test: Greenhouse trial: N2O emission from potted field soil planted with summer wheat (Example 4)
Format: in vivo
Conditions: fertilizer (ammonium nitrate 100 kg/ha) alone; sampled over 4 weeks; UTC 83.0

In the case of ammonium nitrate, the “Mean mg N2O-N/m^2” value is reported as 291.6 mg N2O-N/m^2.
